Literature values, collected in paper PMC7235792, “Effect of the Most Relevant CYP3A4 and CYP3A5 Polymorphisms on the Pharmacokinetic Parameters of 10 CYP3A Substrates” (Biomedicines, 2020).

Details: previous study of the group; cited from earlier work

CCC(=O)N(c1ccccc1)C1CCN(CCc2ccccc2)CC1
AUC in CYP3A4*22 carriers: higher AUC

This is a selection: effects in other tests are not listed, and their absence says nothing.
